Laboratory results reported in PubChem BioAssay AID651654 (Broad Institute, 2012).
The entries are a selection whose mix differs from that of the whole data set. Calls of active or inactive are those of the source.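 How the source made its calls: active means mean lysis activity across replicates of at least 80%, whatever share of replicates individually reach that level; inactive means mean lysis activity below 80%.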

experiment: fungicidal lysis via adenylate kinase leakage – AK release luminescence, single concentration, primary screen (AID 651654); settings: C. neoformans lysis, 4 h, at 15 µM, stronger effect = higher value, normalised: neutral wells 0, clomiphene wells 100
How it was run: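 Material – log-phase Cryptococcus neoformans yeast cells · Input – 5 × 10^6 yeast cells/mL · Medium – fresh YPD growth medium · Doses – single compound concentration per well · Timing – static 4 h at 37 °C with compound, 1 h detection · Detection – adenylate kinase release luminescence · Read-out – signal increase indicating cell lysis · Control set – Clomiphene as positive lysis control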

Which lysis activity does the source give for `CN(C)C(=O)Oc1noc2ccccc12` here?
The lysis activity was inactive: 3.05%.

For `CC(NC(=O)COC(=O)C(O)(c1ccccc1)c1ccccc1)c1ccccc1` (stereo unspecified), which lysis activity is on record?
Its lysis activity is inactive: -0.032%.

Which lysis activity does the source give for `CCNC(=S)/N=C(\N)N[N+](=O)[O-]` here?
Its lysis activity is inactive: -0.599%.

For `Cc1ccc(NP(=O)(Oc2cccc(C)c2)Oc2cccc(C)c2)nc1`, which lysis activity is on record?
The lysis activity was inactive: -0.983%.

Which lysis activity does the source give for `O=P1(N(CCCl)CCCl)OCCC2CCCCN21` (stereo unspecified) here?
The lysis activity was inactive: -1.85%.

For `CC(=O)c1ccc(N2CC2c2ccncc2)cc1` (stereo unspecified), which lysis activity is on record?
Its lysis activity is inactive: 1.17%.

Which lysis activity does the source give for `C[C@@H]1C=CCP(=O)(Oc2ccccc2)O1` (stereo partly specified) here?
Its lysis activity is inactive: 2.97%.

Which lysis activity does the source give for `C[C@H]1OP(=O)(Oc2ccccc2)C[C@@H]2O[C@@H]21` (stereo partly specified) here?
The lysis activity was inactive: -4.36%.

With `Cc1ccccc1CN(C)C(=O)COC(=O)C(O)(c1ccccc1)c1ccccc1` as the compound, how does the lysis activity read?
The lysis activity was inactive: -0.717%.

With `CC(=O)Nc1ccc(Oc2c([N+](=O)[O-])cc([N+](=O)[O-])cc2[N+](=O)[O-])cc1` as the compound, how does the lysis activity read?
Its lysis activity is inactive: 0.327%.

Which lysis activity does the source give for `CC(=O)Nc1ccc([As](=O)(O)O)c(O)c1` here?
Its lysis activity is inactive: -0.253%.

For `O=P1(Nc2nc3ccc(Cl)cc3s2)COc2ccccc2O1` (stereo unspecified), which lysis activity is on record?
The lysis activity was inactive: 0.167%.

Which lysis activity does the source give for `CCc1cc(O)c([N+](=O)[O-])c(C)c1[N+](=O)[O-]` here?
The lysis activity was inactive: -0.132%.

Which lysis activity does the source give for `O=P(Nc1nccs1)(c1ccccc1)c1ccccc1` here?
The lysis activity was inactive: 2.75%.

Which lysis activity does the source give for `c1nnnn1CCn1cnnn1` here?
The lysis activity was inactive: 1.43%.

With `O=[N+]([O-])c1ccc(O)c(/C=N/Nc2ccc([N+](=O)[O-])cc2[N+](=O)[O-])c1` as the compound, how does the lysis activity read?
Its lysis activity is inactive: -1.88%.

Which lysis activity does the source give for `CC(=O)NC(SC(=S)N(C)C)C(Cl)(Cl)Cl` (stereo unspecified) here?
The lysis activity was inactive: 4.46%.

Which lysis activity does the source give for `O=[As](O)(c1ccccc1)c1ccc(O)cc1` here?
The lysis activity was inactive: -1.09%.

With `Nc1ccc([As](=O)(O)c2ccc([N+](=O)[O-])cc2)cc1` as the compound, how does the lysis activity read?
Its lysis activity is inactive: -3.13%.

Which lysis activity does the source give for `O=C(OC1CN2CCC1CC2)c1cccc(Cl)c1` (stereo unspecified) here?
Its lysis activity is inactive: -2.42%.

With `Nc1ccc(CCCCOc2ccccc2)cc1` as the compound, how does the lysis activity read?
Its lysis activity is inactive: 0.433%.

Which lysis activity does the source give for `COc1ccc(N)c([N+](=O)[O-])c1[N+](=O)[O-]` here?
The lysis activity was inactive: -0.332%.

Which lysis activity does the source give for `O=P(Nc1ccccn1)(c1ccc(Br)cc1)c1ccc(Br)cc1` here?
Its lysis activity is inactive: -6.87%.

With `CN(C)C1(CNC(=O)c2ccc(Cl)c(S(N)(=O)=O)c2)CCCCC1` as the compound, how does the lysis activity read?
The lysis activity was inactive: 1.28%.

Which lysis activity does the source give for `C[C@H]1OP(=O)(Oc2ccccc2)[C@H](O)[C@H](O)[C@H]1N=[N+]=[N-]` (stereo partly specified) here?
The lysis activity was inactive: 3.53%.

With `O=P(Nc1nc2ccccc2s1)(c1ccccc1)c1ccccc1` as the compound, how does the lysis activity read?
Its lysis activity is inactive: -4.91%.
